The target in assay [1] is human LPA1 receptors (Homo sapiens (Human), UniProt Q92633). Nature of the assay: In vitro LPA1 receptor assay (LPA-driven intracellular calcium release, FLIPR). The format is cell-based. To be noted: RH7777 cells expressing human LPA1 receptors; LPA at EC80. The method, then: In Vitro LPA1 Receptor Assay
Engagement of the LPA1 receptor by its ligand, oleoyl-L-α-lysophosphatidic acid (LPA), leads to the release of intracellular stores of calcium into the cytoplasm mediated through a Gq-driven increase in inositol triphosphate (IP3) levels. Gq is a heterotrimeric G protein subunit that activates phospholipase C.
The ability of test compounds to prevent LPA-driven intracellular release of stored calcium from RH7777 cells expressing human LPA1 receptors was assayed by stimulating the cells with LPA in the presence of various test compounds to measure the test compounds' antagonism, i.e. activity in vitro.
Approximately 10,000 cells in normal culture medium (Dulbecco's Modified Eagle Media, 10% Foetal Calf Serum) were dispensed per assay well in a black clear bottom collagen coated 384 well plate (Beckton Dickinson). Cells were allowed to settle for thirty minutes at room temperature before being incubated overnight at 37° C., 5% CO2. […]
To test for antagonist activity, test compounds at a final concentration range between 0.32 nM-10 μM (diluted in assay buffer) were added to the assay wells and allowed to incubate for twenty five minutes. […] Ligand-dependent changes in intracellular calcium levels were determined by measuring changes in fluorescence of the dye over […] following excitation over […].

Sequences of proteins named here, by UniProt entry; tags and fusion partners are left off. A change or cut given only in a name is not applied to a line headed by its entry.
UniProt Q92633: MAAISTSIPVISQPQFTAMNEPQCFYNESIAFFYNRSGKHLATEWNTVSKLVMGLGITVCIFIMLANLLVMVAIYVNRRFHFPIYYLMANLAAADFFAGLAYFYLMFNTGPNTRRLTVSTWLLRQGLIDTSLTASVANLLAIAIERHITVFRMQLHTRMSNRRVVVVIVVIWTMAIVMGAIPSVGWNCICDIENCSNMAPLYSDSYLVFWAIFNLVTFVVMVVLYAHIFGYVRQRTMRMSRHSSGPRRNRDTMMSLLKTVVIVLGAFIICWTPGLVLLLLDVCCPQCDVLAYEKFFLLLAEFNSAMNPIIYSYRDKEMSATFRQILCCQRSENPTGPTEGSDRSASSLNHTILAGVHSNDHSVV
UniProt Q9H1C0: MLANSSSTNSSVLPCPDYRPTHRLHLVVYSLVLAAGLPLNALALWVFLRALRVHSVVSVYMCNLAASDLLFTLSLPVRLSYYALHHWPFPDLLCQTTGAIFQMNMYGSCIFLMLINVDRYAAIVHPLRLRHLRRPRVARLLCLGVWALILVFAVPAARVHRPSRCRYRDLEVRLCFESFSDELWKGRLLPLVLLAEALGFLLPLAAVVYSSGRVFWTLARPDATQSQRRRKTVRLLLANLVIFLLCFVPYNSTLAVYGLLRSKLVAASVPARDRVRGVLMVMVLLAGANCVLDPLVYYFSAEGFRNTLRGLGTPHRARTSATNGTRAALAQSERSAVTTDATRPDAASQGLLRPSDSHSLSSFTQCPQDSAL

The target in assay [2] is LPA5 receptor (Homo sapiens (Human), UniProt Q9H1C0). Nature of the assay: In vitro LPA5 receptor assay (LPA-driven intracellular calcium release, FLIPR). The format is cell-based. To be noted: RH7777 cells expressing human LPA5 receptors; LPA at EC90. How it is done:
In Vitro LPA5 Receptor Assay
Engagement of the LPA5 receptor by its ligand, oleoyl-L-α-lysophosphatidic acid (LPA), leads to the release of intracellular stores of calcium into the cytoplasm mediated through a Gq-driven increase in inositol triphosphate (IP3) levels. Gq is a heterotrimeric G protein subunit that activates phospholipase C.
The ability of test compounds to prevent LPA-driven intracellular release of stored calcium from RH7777 cells expressing human LPA5 receptors was assayed by stimulating the cells with LPA in the presence of various test compounds to measure the test compounds'antagonism, i.e. activity in vitro.
Approximately 10,000 cells in normal culture medium (Minimal Essential Media, 10% Foetal Calf Serum) were dispensed per assay well in a black clear bottom poly-D-lysine coated 384 well plate (Corning). Cells were allowed to settle for thirty minutes at room temperature before being incubated overnight at 37° C., 5% CO2. […]
To test for antagonist activity, test compounds at a final concentration range between 0.32 nM-10 μM (diluted in assay buffer) were added to the assay wells and allowed to incubate for fifteen minutes. […] Ligand-dependent changes in intracellular calcium levels were determined by measuring changes in fluorescence of the dye over […] following excitation over […].
On the technique in general: Calcium assays in cells follow changes in intracellular calcium, usually with a dye or a luminescent sensor.

Each structure is given as a SMILES string. pIC50: −log10 of the molar value.

As usually defined, the pIC50 is the IC50 on a negative log10 scale, so that one unit is a factor of ten.

Turning to `CCN(Cc1ccc(C(=O)O)cc1)C(=O)c1ccc(Oc2ccccc2OC)cc1` [Example 28, 4-((N-Ethyl-4-(2-methoxyphenoxy)benzamido)methyl)benzoic acid], the pIC50 in assay [1] was 7.34; in assay [2], 7.35.

The record behind these values is patent US9464060B2, “Compounds” (TAKEDA PHARMACEUTICAL COMPANY LIMITED, priority 2013, dated 2016).
